Screening results (PubChem BioAssay)
This is a sample that favours compounds with a hit; in the whole collection about 2.1% have one here.
Wnt act – Wnt/beta-catenin pathway activation | Wnt/beta-catenin reporter cell assay, activator, plate reader | activation, % at 9.35 µM | AID 743398 | 300,000 compounds, 1.2% hits; in the data active = activation above about 30%, passing the limit was not always enough
PGC1a acetyl inh – modulators of PGC1a acetylation; U2OS PGC1a acetylation, AlphaScreen anti-acetyl-lysine; with virally co-expressed GCN5 acetyltransferase; inhibition, % at 15.6 µM; 350,000 compounds, 0.17% hits; AID 651687;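 active = every replicate shows inhibition of at least 40%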
TRPM1 prom inh – MITF TRPM1 promoter inhibition in SK-MEL-5 cells; SK-MEL-5 TRPM1 promoter luciferase, 24 h; inhibition, % at 12.5 µM; 330,000 compounds, 0.83% hits; AID 488899;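 active = mean inhibition across replicates of 60% or more, whatever share of single replicates reaches that level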
MITF TRPM1 HTS – MITF TRPM1 promoter activation in melanoma cells. activation, % at 12.5 µM. 300,000 compounds, 0.75% hits. SK-MEL-5 TRPM1-promoter luciferase, 24 h; % of positive control, neutral wells = 0;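 active = mean activation of at least 80% with every replicate also reaching 80%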
miR122 inh – miR-122 inhibition in Huh7 cells | activation (reporter increase), % at 12.5 µM | AID 602342 | 340,000 compounds, 0.3% hits | Huh7 miR-122 Renilla luciferase sensor, 48 h; neutral wells = 0, positive control = 100;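 active = mean replicate activation score at least 90 and every replicate individually at or above 90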;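 note: higher luciferase means less miR-122 activity so hits act as miR-122 inhibitors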
UUG fidelity – alters start codon recognition fidelity in yeast. S. cerevisiae UUG-firefly luciferase reporter, luminescence/redox ratio. activity score, % at 18.7 µM. 0.13% of 350,000 active. AID 602363;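 active = replicate mean at a twofold rise or more, about +100% in these data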;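 also: firefly luciferase made from a UUG start codon reports start codon fidelity; reporter light over untreated wells divided by growth signal over untreated wells; some hits fall short of that in this replicate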
Large screens that a line does not name were inactive; [ ] = remark or other dose.

COc1ccc(C(=O)NN/C(=N/S(=O)(=O)c2ccc(C)cc2)c2ccccc2)cc1	Wnt act 42.8, MITF TRPM1 HTS 129.3 (no result: miR122 inh, UUG fidelity)
CN(C)C(=O)[C@H]1[C@H](CO)[C@H]2Cn3c(ccc(-c4cccnc4)c3=O)[C@H]2N1Cc1ccccc1F	none (no result: Wnt act, TRPM1 prom inh, MITF TRPM1 HTS, UUG fidelity)
O=C(CNC(=O)c1ccccc1)N/N=C/c1ccc([N+](=O)[O-])s1	TRPM1 prom inh 62.7 (no result: miR122 inh, UUG fidelity)
O=C(Cc1ccccc1)NCC(=O)N/N=C/c1ccc([N+](=O)[O-])s1	TRPM1 prom inh 82.7
COc1ccc(NC(=O)CCC(=O)N/N=C/c2ccc([N+](=O)[O-])s2)cc1	TRPM1 prom inh 72.2 (no result: Wnt act, PGC1a acetyl inh)
C[C@@H]1CN([C@@H](C)CO)C(=O)c2cccc(NS(=O)(=O)c3cccs3)c2O[C@@H]1CN(C)S(=O)(=O)c1cccs1	none (no result: Wnt act, TRPM1 prom inh, MITF TRPM1 HTS)
C[C@H](CO)N1C[C@H](C)[C@@H](CN(C)CC2CC2)Oc2ccc(NS(C)(=O)=O)cc2CC1=O	none (no result: Wnt act, TRPM1 prom inh, MITF TRPM1 HTS)
OC(CNCCc1ccccc1)COc1ccc(OCC(O)CNCCc2ccccc2)cc1 (stereo unspecified)	TRPM1 prom inh 84.1 (no result: MITF TRPM1 HTS)
Cc1ccc(S(=O)(=O)Nc2ccc3c(c2)C(=O)N([C@H](C)CO)C[C@H](C)[C@@H](CN(C)C(=O)NC(C)C)O3)cc1	none (no result: Wnt act, TRPM1 prom inh, MITF TRPM1 HTS, UUG fidelity)
O=C(c1ccc(F)cc1)N1C[C@H]2[C@@H](c3ccccc31)[C@@H](CO)N2C(=O)c1ccc(F)cc1	miR122 inh 364.1[16.7 µM] (no result: Wnt act, TRPM1 prom inh, MITF TRPM1 HTS)
O=C(c1cccc(F)c1)N1C[C@H]2[C@@H](c3ccccc31)[C@H](CO)N2C(=O)c1ccc(F)cc1	none (no result: Wnt act, TRPM1 prom inh, MITF TRPM1 HTS)
O=C(c1cccc(F)c1)N1C[C@H]2[C@@H](c3ccccc31)[C@@H](CO)N2C(=O)c1ccc(F)cc1	miR122 inh 191.7[16.7 µM] (no result: Wnt act, TRPM1 prom inh, MITF TRPM1 HTS)
O=C(Nc1ccccc1F)N1C[C@@H]2[C@H](c3ccccc31)[C@@H](CO)N2C(=O)C1CCCC1	miR122 inh 130.0[16.7 µM] (no result: Wnt act, TRPM1 prom inh, MITF TRPM1 HTS)
O=C(Nc1ccccc1)N1C[C@H]2[C@@H](c3ccccc31)[C@@H](CO)N2C(=O)c1ccccn1	miR122 inh 132.1[16.7 µM] (no result: Wnt act, TRPM1 prom inh, MITF TRPM1 HTS)
O=C(c1ccc(F)cc1)N1C[C@H]2[C@@H](c3ccccc31)[C@H](CO)N2C(=O)c1ccccc1	none (no result: Wnt act, TRPM1 prom inh, MITF TRPM1 HTS)
C[C@H](CO)N1C[C@H](C)[C@@H](CN(C)C(=O)Nc2ccc(F)cc2)Oc2cc(-c3ccc(F)cc3)ccc2S1(=O)=O	none (no result: Wnt act, TRPM1 prom inh, MITF TRPM1 HTS, UUG fidelity)
CN(C)CCCNC(=O)[C@@H]1[C@@H](CO)[C@@H]2Cn3c(ccc(-c4cccc(C(=O)N(C)C)c4)c3=O)[C@H]1N2	none (no result: Wnt act, TRPM1 prom inh, MITF TRPM1 HTS, UUG fidelity)
COc1ccc(NC(=O)N(C)C[C@H]2OCCCC[C@H](C)Oc3ccc(NS(=O)(=O)c4ccc(F)cc4)cc3C(=O)N([C@@H](C)CO)C[C@@H]2C)cc1	none (no result: Wnt act, TRPM1 prom inh, MITF TRPM1 HTS)
COc1cc2c(cc1OC)[C@@H]1Cc3cc4c(cc3[C@H](C2)N1C)OCO4	none
COc1cc2c(cc1OC)C1CCc3cc4c(cc3C1N=C2)OCO4 (stereo unspecified)	Wnt act 50.5 (no result: TRPM1 prom inh, MITF TRPM1 HTS)
CC(C)(C)c1ccc(-c2noc(CCC(N)=O)n2)cc1	TRPM1 prom inh 70.9 (no result: Wnt act, MITF TRPM1 HTS)
Cc1ccc(-c2noc(CCC(=O)NCC3CCCO3)n2)cc1 (stereo unspecified)	none (no result: Wnt act)
CC(C)(C)c1ccc(-c2noc(CCC(=O)NCC3CCCO3)n2)cc1 (stereo unspecified)	TRPM1 prom inh 83.8 (no result: Wnt act, UUG fidelity)
CNC(=O)CCc1nc(-c2ccc(C(C)(C)C)cc2)no1	none (no result: Wnt act)
CC(C)(C)c1ccc(-c2noc(CCC(=O)Nc3cccnc3)n2)cc1	TRPM1 prom inh 79.0
COc1ccc(-c2noc(CCC(=O)Nc3cccnc3)n2)cc1	none (no result: PGC1a acetyl inh, miR122 inh)
CO[C@@H]1CN(C)C(=O)c2cc(NC(=O)c3cnccn3)ccc2OC[C@@H](C)N(C(C)=O)C[C@H]1C	none (no result: Wnt act, TRPM1 prom inh, MITF TRPM1 HTS, miR122 inh)
C[C@@H]1CCCCO[C@@H](CN(C)C(=O)Nc2ccc3c(c2)OCO3)[C@@H](C)CN([C@H](C)CO)C(=O)c2cc(NS(=O)(=O)c3ccccc3)ccc2O1	none (no result: Wnt act, TRPM1 prom inh, MITF TRPM1 HTS)
Cc1ccc(Cl)cc1N1CCN(C(=O)c2cc3c(=O)[nH]c4ccccc4c3n2C)CC1	TRPM1 prom inh 64.3 (no result: PGC1a acetyl inh, miR122 inh, UUG fidelity)
C[C@@H]1CCCCO[C@H](CN(C)C(=O)c2ccncc2)[C@@H](C)CN([C@@H](C)CO)C(=O)c2cc(N(C)C)ccc2O1	none (no result: Wnt act, TRPM1 prom inh, MITF TRPM1 HTS)
Cc1cc(NC(=O)Nc2ccc3c(ccn3C)c2)sn1	MITF TRPM1 HTS 105.9
COCCNC(=O)c1cc2cc3ccc(OC)cc3nc2o1	none
COc1ccc2cc3cc(C(=O)NCCN4CCN(c5ccccc5F)CC4)oc3nc2c1	none
CCC(C)NC(=O)c1cc2cc3ccc(OC)cc3nc2o1 (stereo unspecified)	MITF TRPM1 HTS 88.8
COc1ccc2cc3cc(C(=O)Nc4ccccc4N4CCN(C)CC4)oc3nc2c1	TRPM1 prom inh 66.3
COc1ccc2cc3cc(C(=O)NCCC(C)C)oc3nc2c1	none (no result: miR122 inh)
CCCCN(CC)C(=O)c1cc2cc3ccc(OC)cc3nc2o1	Wnt act 58.3
O=C(C[C@@H]1C[C@@H]2c3cc(NC(=O)Nc4ccc(C(F)(F)F)cc4)ccc3O[C@@H]2[C@@H](CO)O1)NCc1cc(F)ccc1F	none (no result: Wnt act, TRPM1 prom inh, MITF TRPM1 HTS, UUG fidelity)
Cc1c(C(=O)/C=C/N(C)C)nnn1-c1ccc(Cl)c(Cl)c1	Wnt act 47.7 (no result: MITF TRPM1 HTS, miR122 inh, UUG fidelity)
CC(CNC(=O)c1cc(COc2c(F)cccc2F)on1)c1ccccc1 (stereo unspecified)	none
O=C(NCCc1cnn(-c2ccccc2)c1)c1cc(COc2c(F)cccc2F)on1	Wnt act 37.8 (no result: PGC1a acetyl inh, miR122 inh, UUG fidelity)
CCCCn1c(SCC(=O)NC2CC2)nnc1-c1ccncc1	none (no result: UUG fidelity)
CCCn1c(SCC(=O)NC2CCCCC2)nnc1-c1ccncc1	Wnt act 54.2
COCC(=O)N1C[C@H](C)[C@@H](OC)CN(C)C(=O)c2ccc(NC(=O)NC(C)C)cc2OC[C@@H]1C	none (no result: Wnt act, TRPM1 prom inh, MITF TRPM1 HTS, miR122 inh, UUG fidelity)
CC(=O)NCCC(=O)Nc1nc2ccc(Oc3ccccc3)cc2s1	MITF TRPM1 HTS 109.5 (no result: PGC1a acetyl inh, UUG fidelity)
